Reference: patent US10029014B2, “Synthesis of novel asymmetric bow-tie PAMAM dendrimer-based conjugates for tumor-targeting drug delivery” (priority 2013, dated 2018)

What was measured:
[1] = system: ID-8; experiment: Cytotoxicity assay, MTT method, ID-8 cells; conditions: read-out: Cytotoxicity (IC50, nM) ID-8, + GSH-OEt; 24 h of drug exposure, washing with DPBS, 48 hours incubation with 6 equivalents of glutathione-OEt
[2] = system: MX-1; experiment: Cytotoxicity assay, MTT method, MX-1 cells
[3] = system: WI-38; experiment: Cytotoxicity assay, MTT method, WI-38 cells; conditions: read-out: Cytotoxicity (IC50, nM) WI-38; 72 hours of drug exposure at 37° C. under 5% CO2

“Biotin-PEG3-linker-SB-T-1214 [BLT-S (40)]” gave an IC50 [1] of 5.91 ± 0.32 nM, an IC50 ([2]; read-out: Cytotoxicity (IC50, nM) MX-1, + GSH-OEt, 24 h of drug exposure, washing with DPBS, 48 hours incubation with 6 equivalents of glutathione-OEt) of 1.52 ± 0.34 nM and an IC50 ([2]; read-out: Cytotoxicity (IC50, nM) MX-1, 72 hours of drug exposure at 37° C. under 5% CO2) of 26.7 nM. It also gave an IC50 [3] of 519 ± 90.3 nM.

Like-named read-outs stand apart in the source and are kept apart here.
